Experimental data reported in ChEMBL document CHEMBL1122030, “2-Arylpyrazolo[4,3-c]quinolin-3-ones: novel agonist, partial agonist, and antagonist of benzodiazepines” (J Med Chem, 1982).

Sequences of proteins named here, by UniProt entry; tags and fusion partners are left off. A change or cut given only in a name is not applied to a line headed by its entry.
UniProt O09028: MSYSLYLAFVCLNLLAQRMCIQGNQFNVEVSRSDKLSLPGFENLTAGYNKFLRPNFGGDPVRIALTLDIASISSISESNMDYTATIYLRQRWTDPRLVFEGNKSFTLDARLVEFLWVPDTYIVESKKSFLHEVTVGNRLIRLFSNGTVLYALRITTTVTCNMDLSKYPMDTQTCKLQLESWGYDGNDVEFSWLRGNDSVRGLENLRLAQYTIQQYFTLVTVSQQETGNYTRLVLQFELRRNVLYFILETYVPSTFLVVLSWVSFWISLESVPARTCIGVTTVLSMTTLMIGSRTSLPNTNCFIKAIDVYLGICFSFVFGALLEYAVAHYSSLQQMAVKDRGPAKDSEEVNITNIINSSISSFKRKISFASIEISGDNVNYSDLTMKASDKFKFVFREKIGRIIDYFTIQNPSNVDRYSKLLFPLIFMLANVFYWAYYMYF
UniProt P15431: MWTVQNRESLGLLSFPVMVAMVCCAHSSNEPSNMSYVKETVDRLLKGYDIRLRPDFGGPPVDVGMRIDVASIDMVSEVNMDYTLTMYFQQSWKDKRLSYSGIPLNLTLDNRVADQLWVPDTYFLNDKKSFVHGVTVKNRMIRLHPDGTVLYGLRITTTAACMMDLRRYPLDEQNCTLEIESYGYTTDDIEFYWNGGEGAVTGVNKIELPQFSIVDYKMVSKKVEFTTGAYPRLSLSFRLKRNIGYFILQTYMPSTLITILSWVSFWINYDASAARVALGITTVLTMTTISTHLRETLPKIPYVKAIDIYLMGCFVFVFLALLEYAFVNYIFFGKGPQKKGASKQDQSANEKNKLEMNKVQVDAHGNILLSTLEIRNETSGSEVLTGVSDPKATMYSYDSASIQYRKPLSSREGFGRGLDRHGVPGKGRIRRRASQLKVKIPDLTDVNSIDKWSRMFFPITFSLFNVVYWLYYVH
UniProt P18506: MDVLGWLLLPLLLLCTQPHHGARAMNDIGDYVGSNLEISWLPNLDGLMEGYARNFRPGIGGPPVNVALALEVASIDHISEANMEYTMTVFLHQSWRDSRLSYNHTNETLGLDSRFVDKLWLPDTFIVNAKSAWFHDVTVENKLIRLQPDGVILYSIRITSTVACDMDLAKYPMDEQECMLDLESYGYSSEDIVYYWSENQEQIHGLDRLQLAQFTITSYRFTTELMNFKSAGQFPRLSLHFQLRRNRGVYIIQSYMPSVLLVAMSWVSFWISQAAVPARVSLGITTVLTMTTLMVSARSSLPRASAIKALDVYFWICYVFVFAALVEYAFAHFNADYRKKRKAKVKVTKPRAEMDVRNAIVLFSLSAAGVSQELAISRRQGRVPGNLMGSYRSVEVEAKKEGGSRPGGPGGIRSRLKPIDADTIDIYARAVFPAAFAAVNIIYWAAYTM
UniProt P18508: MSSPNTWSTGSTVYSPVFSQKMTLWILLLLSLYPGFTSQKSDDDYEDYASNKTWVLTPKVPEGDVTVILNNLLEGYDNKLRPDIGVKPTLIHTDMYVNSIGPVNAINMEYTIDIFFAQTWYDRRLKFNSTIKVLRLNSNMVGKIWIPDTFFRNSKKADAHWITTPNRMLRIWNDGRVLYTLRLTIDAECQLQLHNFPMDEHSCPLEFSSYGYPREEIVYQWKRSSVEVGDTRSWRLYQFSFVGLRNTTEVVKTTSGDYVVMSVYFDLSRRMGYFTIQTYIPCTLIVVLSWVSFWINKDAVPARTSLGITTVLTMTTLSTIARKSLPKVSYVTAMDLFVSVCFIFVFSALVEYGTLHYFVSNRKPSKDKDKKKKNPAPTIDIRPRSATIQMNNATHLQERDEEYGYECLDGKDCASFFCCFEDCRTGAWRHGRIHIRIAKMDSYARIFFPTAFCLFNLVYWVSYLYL
UniProt P19969: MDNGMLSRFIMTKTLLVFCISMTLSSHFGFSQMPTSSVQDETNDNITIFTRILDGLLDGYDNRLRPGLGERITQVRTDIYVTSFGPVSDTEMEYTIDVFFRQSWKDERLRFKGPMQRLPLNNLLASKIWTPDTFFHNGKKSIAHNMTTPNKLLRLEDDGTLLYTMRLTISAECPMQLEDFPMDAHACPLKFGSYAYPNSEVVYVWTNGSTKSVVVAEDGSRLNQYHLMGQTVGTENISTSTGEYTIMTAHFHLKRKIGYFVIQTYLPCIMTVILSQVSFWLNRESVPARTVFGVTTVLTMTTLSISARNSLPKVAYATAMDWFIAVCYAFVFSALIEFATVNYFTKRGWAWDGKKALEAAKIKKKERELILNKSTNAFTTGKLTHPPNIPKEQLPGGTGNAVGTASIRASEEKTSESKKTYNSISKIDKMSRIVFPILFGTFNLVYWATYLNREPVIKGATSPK
UniProt P20236: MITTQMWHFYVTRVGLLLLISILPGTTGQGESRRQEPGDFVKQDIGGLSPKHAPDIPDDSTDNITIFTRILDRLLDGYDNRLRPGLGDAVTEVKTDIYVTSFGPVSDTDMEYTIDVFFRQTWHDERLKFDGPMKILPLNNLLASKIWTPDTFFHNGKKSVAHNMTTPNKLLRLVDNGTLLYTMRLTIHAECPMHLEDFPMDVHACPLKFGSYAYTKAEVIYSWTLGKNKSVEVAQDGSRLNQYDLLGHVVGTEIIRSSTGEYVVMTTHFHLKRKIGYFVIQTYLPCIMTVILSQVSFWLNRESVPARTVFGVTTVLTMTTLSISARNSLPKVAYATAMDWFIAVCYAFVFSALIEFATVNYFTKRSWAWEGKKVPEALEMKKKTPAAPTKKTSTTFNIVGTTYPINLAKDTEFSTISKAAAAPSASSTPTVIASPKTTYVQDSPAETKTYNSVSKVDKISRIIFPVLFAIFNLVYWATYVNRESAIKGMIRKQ
UniProt P23574: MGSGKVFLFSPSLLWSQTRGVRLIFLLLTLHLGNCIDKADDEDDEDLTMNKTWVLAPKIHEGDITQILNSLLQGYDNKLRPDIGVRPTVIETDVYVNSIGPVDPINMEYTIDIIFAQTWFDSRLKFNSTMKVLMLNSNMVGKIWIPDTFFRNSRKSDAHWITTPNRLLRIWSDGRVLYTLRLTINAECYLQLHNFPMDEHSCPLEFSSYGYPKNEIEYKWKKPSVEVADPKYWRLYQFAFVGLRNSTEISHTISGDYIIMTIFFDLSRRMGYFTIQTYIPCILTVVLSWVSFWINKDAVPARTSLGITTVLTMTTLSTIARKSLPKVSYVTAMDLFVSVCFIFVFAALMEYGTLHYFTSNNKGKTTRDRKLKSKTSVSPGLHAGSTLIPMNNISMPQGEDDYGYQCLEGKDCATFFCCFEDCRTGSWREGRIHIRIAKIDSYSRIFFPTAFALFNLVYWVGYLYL
UniProt P23576: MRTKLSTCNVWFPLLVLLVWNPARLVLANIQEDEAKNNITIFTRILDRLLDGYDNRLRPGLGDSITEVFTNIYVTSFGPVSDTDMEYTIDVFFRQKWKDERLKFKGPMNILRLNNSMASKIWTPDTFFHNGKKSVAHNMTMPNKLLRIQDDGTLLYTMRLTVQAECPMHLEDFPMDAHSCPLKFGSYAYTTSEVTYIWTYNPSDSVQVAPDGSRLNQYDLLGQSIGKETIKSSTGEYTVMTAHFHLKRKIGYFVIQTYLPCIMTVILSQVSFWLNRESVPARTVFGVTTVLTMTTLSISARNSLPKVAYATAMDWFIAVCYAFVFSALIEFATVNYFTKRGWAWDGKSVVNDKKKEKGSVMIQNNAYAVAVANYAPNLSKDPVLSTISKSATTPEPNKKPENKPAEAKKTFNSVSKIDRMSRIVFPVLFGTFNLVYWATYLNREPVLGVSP
UniProt P28471: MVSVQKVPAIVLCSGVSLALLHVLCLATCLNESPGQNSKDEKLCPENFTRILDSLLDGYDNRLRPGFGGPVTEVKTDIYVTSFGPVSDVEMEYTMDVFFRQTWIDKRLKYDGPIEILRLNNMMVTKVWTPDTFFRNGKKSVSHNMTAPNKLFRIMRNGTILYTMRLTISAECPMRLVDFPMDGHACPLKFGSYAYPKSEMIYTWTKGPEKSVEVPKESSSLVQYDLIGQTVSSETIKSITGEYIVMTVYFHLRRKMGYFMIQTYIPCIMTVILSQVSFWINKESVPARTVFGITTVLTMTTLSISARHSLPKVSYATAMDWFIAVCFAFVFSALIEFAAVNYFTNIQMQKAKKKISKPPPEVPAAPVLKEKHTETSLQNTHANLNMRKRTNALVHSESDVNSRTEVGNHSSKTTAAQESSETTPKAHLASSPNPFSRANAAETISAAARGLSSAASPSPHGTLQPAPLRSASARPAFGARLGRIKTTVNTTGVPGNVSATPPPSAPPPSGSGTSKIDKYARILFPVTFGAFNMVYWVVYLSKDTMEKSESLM
UniProt P28473: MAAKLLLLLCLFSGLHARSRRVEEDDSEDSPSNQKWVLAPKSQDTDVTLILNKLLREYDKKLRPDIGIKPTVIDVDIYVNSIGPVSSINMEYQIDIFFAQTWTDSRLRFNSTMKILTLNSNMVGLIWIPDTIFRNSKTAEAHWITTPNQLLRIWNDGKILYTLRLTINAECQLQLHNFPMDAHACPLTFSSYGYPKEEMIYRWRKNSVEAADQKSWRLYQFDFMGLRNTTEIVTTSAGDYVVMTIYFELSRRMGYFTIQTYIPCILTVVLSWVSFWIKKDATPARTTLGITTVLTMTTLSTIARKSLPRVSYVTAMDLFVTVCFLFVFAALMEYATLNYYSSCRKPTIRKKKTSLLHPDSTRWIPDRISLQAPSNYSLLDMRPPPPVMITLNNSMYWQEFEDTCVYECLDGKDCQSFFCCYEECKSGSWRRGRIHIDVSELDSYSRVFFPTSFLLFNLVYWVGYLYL
UniProt P30191: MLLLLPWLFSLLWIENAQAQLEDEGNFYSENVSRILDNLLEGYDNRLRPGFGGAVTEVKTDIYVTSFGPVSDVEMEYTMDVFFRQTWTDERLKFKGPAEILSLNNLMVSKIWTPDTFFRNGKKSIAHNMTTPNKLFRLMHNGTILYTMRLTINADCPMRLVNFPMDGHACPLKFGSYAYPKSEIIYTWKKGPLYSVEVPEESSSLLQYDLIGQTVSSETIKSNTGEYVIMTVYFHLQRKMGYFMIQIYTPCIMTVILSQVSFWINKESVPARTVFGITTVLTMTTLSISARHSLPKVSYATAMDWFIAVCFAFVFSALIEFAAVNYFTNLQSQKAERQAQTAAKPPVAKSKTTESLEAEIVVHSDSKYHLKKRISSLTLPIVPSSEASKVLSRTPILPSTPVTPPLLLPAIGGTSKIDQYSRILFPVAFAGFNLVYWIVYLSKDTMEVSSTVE
UniProt P62813: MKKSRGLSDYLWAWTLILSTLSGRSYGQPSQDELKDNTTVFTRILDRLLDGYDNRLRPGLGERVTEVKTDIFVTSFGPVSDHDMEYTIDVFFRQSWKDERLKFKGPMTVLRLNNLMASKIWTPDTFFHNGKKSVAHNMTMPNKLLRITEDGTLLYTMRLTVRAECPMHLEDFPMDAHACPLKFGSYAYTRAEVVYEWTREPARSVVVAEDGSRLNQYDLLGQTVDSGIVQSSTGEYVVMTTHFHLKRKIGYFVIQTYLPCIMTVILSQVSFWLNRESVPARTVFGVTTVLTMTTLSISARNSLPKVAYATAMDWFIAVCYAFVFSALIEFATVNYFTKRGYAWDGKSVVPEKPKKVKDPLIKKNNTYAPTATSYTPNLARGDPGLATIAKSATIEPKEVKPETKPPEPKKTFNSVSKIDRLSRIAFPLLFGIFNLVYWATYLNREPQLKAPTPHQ
UniProt P63079: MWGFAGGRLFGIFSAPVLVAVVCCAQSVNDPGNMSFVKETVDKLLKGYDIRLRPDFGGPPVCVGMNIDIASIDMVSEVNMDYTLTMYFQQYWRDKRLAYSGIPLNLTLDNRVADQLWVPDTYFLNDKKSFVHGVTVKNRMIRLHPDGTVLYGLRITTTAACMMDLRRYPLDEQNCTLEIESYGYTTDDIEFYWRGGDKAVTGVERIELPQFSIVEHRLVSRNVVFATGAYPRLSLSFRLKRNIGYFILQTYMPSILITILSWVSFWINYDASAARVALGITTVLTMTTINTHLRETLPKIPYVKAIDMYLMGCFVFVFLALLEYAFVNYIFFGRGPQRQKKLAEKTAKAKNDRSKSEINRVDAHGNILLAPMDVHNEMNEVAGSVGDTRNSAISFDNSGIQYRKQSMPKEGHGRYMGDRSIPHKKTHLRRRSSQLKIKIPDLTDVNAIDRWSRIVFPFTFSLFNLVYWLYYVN
UniProt P63138: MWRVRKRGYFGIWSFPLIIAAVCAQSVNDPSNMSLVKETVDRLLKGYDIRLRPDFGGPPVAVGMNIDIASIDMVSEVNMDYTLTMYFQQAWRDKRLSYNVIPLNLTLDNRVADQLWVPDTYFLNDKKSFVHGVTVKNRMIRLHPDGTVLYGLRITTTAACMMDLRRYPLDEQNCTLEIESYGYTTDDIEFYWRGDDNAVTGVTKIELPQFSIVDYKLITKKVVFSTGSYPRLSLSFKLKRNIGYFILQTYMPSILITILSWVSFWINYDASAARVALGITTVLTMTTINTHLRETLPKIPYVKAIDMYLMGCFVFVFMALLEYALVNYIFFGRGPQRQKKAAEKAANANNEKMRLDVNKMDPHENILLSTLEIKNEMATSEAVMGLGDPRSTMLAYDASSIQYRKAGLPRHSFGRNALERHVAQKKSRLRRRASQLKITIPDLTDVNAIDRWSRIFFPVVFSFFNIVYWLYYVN

Target: GABA-A receptor; anion channel (Rattus norvegicus) (UniProt O09028+P15431+P18506+P18508+P19969+P20236+P23574+P23576+P28471+P28473+P30191+P62813+P63079+P63138+Q91ZM7+Q9ES14)

- ID50: 0.81 mg/kg
SMILES: COc1ccc(-n2nc3c4ccccc4[nH]cc-3c2=O)cc1
